Measured values published in PubChem BioAssay (NCATS).
The list shows a part of the results, in another mix than the full data. Results filed as inconclusive are left out. Active and inactive are the calls of the source. The call rests on the fitted dose curve; in most records, active means well fitted cell-killing curve with a large enough effect; inconclusive means small, poorly fitted or top-dose-only effect; inactive means flat fitted curve, though single readings scatter.

Legend:
[1] = Cell Viability - LYMP2-006 (AID 978); details: LYMP2-006 lymphoblastoid cell viability, qHTS; at 92.2 µM (top of the series); further: on the % scale 0 is the no-effect control and ±100 the full control effect; nearly all actives have a fitted effect of over 60% in size
Method in brief: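 In this cytotoxicity screen, the human lymphoblastoid line grew in complete medium with test compounds for 24 hr at 37 C. Cellular ATP served as the viability signal.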

[2] = Cell Viability - LYMP2-007 (AID 979); details: LYMP2-007 lymphoblastoid cell viability; at 92.2 µM (top of the series);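 further: cells exposed to compound for 24 h before reading; 0% = DMSO only and the negative end = 92 µM tetraoctylammonium bromide; nearly all actives have a fitted effect of over 60% in size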
Method in brief: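 Cells are seeded at 2500 per well and rested 5 hr. Compounds are then added over a concentration series for 24 hr at 37 C. CellTiter-Glo is added for 30 min at room temperature before luminescence reading.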

[3] = Cell Viability - LYMP2-008 (AID 980); details: LYMP2-008 lymphoblastoid cell viability, qHTS; at 92.2 µM (top of the series);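 further: cells exposed to compound for 24 h at 37 °C; on the % scale 0 is the no-effect control and ±100 the full control effect; nearly all actives have a fitted effect of over 60% in size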
Method in brief: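 Cells seeded at 2500/well and rested 5 hr at 37 C; compounds added over a concentration range and incubated 24 hr at 37 C; CellTiter-Glo added, 30 min at room temperature; luminescence read and AC50 fitted with Hill model.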

[4] = Cell Viability - LYMP2-010 (AID 981); details: LYMP2-010 lymphoblastoid cell viability, qHTS; at 92.2 µM (top of the series);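 further: cells exposed to compound for 24 hours at 37 °C; on the % scale 0 is the no-effect control and ±100 the full control effect; nearly all actives have a fitted effect of over 55% in size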
Description: NIH Chemical Genomics Center [NCGC]
NIH Molecular Libraries Screening Centers Network [MLSCN]
National Institutes of Environmental Health Sciences [NIEHS]
National Toxicology Program [NTP]
We have developed a 1536-well cell-based assay for quantitative high throughput screening (qHTS) against a number of cell lines to determine in vitro cytotoxicity of small molecules. This particular assay uses a human lymphoblastoid cell line (LYMP2-010) purchased from Coriell Institute for Medical Research.
NCGC Assay Protocol Summary:
The CellTiter-Glo luminescent cell viability assay (Promega) is a homogeneous method to measure the number of viable cells in culture. The end point readout of this assay is based on quantitation of intracellular ATP, an indicator of metabolic activity, using the luciferase reaction. […]
Using the CellTiter-Glo luminescent cell viability assay, the amount of cellular ATP was measured in the lymphoblastoid cell line with complete culture medium following compound treatment for 24 hours. […] Library compounds were measured for their ability to cause acute toxicity in the cell line, as reflected by a decrease in intracellular ATP levels, in a concentration-dependent manner. […] AC50 values were determined from concentration-response data modeled with the standard Hill equation. […]
8. Detection; Luminescence; Viewlux plate reader […]

[5] = Cell Viability - LYMP2-012 (AID 982); details: LYMP2-012 lymphoblastoid cell viability qHTS; at 92.2 µM (top of the series);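 further: cellular ATP by luciferase luminescence where a drop means cytotoxicity; cells exposed to compound for one day before reading; 0% = DMSO only and full loss = 92 µM tetraoctylammonium bromide; nearly all actives have a fitted effect of over 55% in size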
[6] = Cell Viability - LYMP2-014 (AID 983); details: LYMP2-014 lymphoblastoid cells, viability qHTS; at 92.2 µM (top of the series);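 further: cells exposed to compound for 24 h at 37 °C; plate controls were DMSO only for no effect and 92 µM tetraoctylammonium bromide for full effect; nearly all actives have a fitted effect of over 50% in size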
Method in brief: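 Cells are plated at 2500/well and left 5 hr at 37 C. Compounds are added across a concentration range and incubated 24 hr at 37 C in complete medium. CellTiter-Glo is added, and luminescence is read after 30 min at room temperature.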

[7] = Cell Viability - LYMP2-016 (AID 984); details: LYMP2-016 lymphoblastoid cell viability, qHTS; at 92.2 µM (top of the series);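 further: cells exposed to compound for 24 hours at 37 °C; on the % scale 0 is the no-effect control and ±100 the full control effect; nearly all actives have a fitted effect of over 55% in size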
Method in brief: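 Concentration-dependent ATP depletion measured in LYMP2-016 lymphoblastoid cells, 24 h, 37 C; luciferase-based luminescent detection; Hill-equation AC50.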

[8] = Cell Viability - LYMP2-018 (AID 985); details: LYMP2-018 lymphoblastoid cells, viability (qHTS); at 92.2 µM (top of the series);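 further: compound exposure lasted 24 hr at 37 °C; plate controls were DMSO only for no effect and tetraoctylammonium bromide at 92 µM for full effect; nearly all actives have a fitted effect of over 50% in size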
Method in brief: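 Seed 2500 lymphoblastoid cells per well, incubate 5 hr at 37 C, add compound and incubate 24 hr at 37 C, add CellTiter-Glo, wait 30 min at room temperature, then read luminescence.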

[9] = Cell Viability - LYMP2-020 (AID 986); details: LYMP2-020 lymphoma cell viability, qHTS; at 92.2 µM (top of the series);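 further: cells exposed to compound for 24 h at 37 °C; plate controls were DMSO only for no effect and tetraoctylammonium bromide at 92 µM for full effect; nearly all actives have a fitted effect of over 55% in size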
Method in brief: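 Seed 2500 cells per well and incubate 5 hr at 37 C. Add compounds at a concentration series and incubate 24 hr at 37 C. Add CellTiter-Glo, wait 30 min at RT, read luminescence, and fit a Hill curve for AC50.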

[10] = Cell Viability - LYMP2-022 (AID 987); details: LYMP2-022 lymphoblastoid cell viability; at 92.2 µM (top of the series)
Method in brief: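 Cells were seeded at 2500 per well, rested 5 hr at 37 C, and treated with titrated compounds for 24 hr at 37 C. Cellular ATP was then quantified by luciferase luminescence, and AC50 values were derived from Hill-modelled concentration-response curves.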

ClCCOP(OCCCl)OCCCl
inactive: activity change, negative = cytotoxicity [1] 1.78% | activity change, negative = cytotoxicity [2] -9.43% | activity change, negative = cytotoxicity [3] -7.04% | activity, negative = cytotoxicity [4] -16% | activity change, negative = cytotoxicity [5] -19.1% | activity change, negative = cytotoxicity [6] -2.48% | activity change, negative = cytotoxicity [7] -4.48% | activity change, negative = cytotoxicity [8] -0.286% | activity change, negative = viability loss [9] -3.47% | viability change, negative = cytotoxic [10] -13.9%

CCOP(=O)(Cl)Cl
inactive: activity change, negative = cytotoxicity [1] -3.2% | activity change, negative = cytotoxicity [2] -0.39% | activity change, negative = cytotoxicity [3] -11.8% | activity, negative = cytotoxicity [4] -20.6% | activity change, negative = cytotoxicity [5] -22% | activity change, negative = cytotoxicity [6] -7.25% | activity change, negative = cytotoxicity [7] -1.47% | activity change, negative = cytotoxicity [8] -8.97% | activity change, negative = viability loss [9] 3.54% | viability change, negative = cytotoxic [10] -0.109%
